AlphaSeq binding of Ab-95 light chain variants to a spike HR2 peptide

Values reported by Engelhart et al. 2022, doi:10.1038/s41597-022-01779-4 (FLAb copy).

Target: peptide PDVDLGDISGINAS, taken from heptad repeat 2 (HR2) of SARS-CoV-2 spike.

Each scFv is VH, the linker GGGGSGGGGSGGGGS, VL, as in the parent Ab-95, and differs from it in the CDRs of the light chain only.
VH: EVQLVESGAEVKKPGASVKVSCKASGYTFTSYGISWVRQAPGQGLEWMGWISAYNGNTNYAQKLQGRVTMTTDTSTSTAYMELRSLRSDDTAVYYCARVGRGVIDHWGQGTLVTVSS
VL: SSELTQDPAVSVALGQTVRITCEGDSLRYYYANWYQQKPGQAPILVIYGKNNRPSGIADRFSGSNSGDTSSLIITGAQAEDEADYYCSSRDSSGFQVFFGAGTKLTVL

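The parent was found by panning a naive human phage display library on the peptide. Library AAYL52 holds single substitutions and randomly drawn double and triple substitutions in the CDRs. The assay is AlphaSeq: two haploid yeast populations carry antibody and antigen on their surface. Binding brings cells together so that they mate, and sequencing counts the barcode pairs among the diploids. Each replicate has its own calibration line, from reference interactions of the BCL2 family. Each pool was mated in three replicate cultures.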

Variants are written as CDR1, CDR2 and CDR3 of the light chain (limits as in the source). Parent: EGDSLRYYYAN, GKNNRPS, SSRDSSGFQVF. Values are log10 of the apparent Kd in nM; lower means stronger binding. Replicates are averaged; those with no signal do not enter the mean. "nd" means that the variant was in the library but no mating with the target was seen in that replicate; the authors take this as a sign of poor binding, and no number exists. Nonspecific signal, from three strains lacking the peptide, appeared in 28% of pairings of library AAYL52, centred on 3.91 (5% of these signals below 2.90); values are not corrected for it. Also given: how often the same scFv was detected with the empty control strains, with their mean in brackets. In this assay the parent's reference entry averaged 2.31; its copy inside this library read 2.25.

CDR-L1,CDR-L2,CDR-L3,log10 Kd (nM) by replicate,"mean, log10 nM",signal with controls
EGDSLRYYYAN,GKNNRPS,KSRDSTGFQVK,nd / nd / nd,nd,1/9 (3.58)
EGDSLRYIYAN,EKNNHPS,SSRDSSGFQVF,nd / nd / nd,nd,1/9 (3.29)
EGDSLRYYYAN,GKTNYPS,SSRDSSGWQVF,3.63 / nd / nd,3.63,3/9 (4.17)
EGDSLRYYYAN,GKHNKPS,SSRDSSAFQVF,3.82 / nd / 4.06,3.94,2/9 (3.68)
EEDSLRYYYAN,GKNNRPS,STRDSYGFQVF,5.11 / 5.15 / 3.74,4.67,3/9 (4.55)
EGDSLRYYYAN,DKNNAPS,SSRDSSGFQVI,4.25 / 4.15 / nd,4.20,1/9 (5.05)
EGDSLRYPYAN,GKNNRPS,SSRCSSGFQVW,nd / 3.42 / nd,3.42,4/9 (3.58)
EGDSLRYWYAN,GKMNRPS,SSRDSSGFLVF,4.76 / 3.95 / 4.66,4.46,5/9 (4.33)
EGDSLRYWYAN,GKNNRPS,SSRDCSSFQVF,3.35 / 3.87 / 3.04,3.42,4/9 (4.32)
EGDSLRYYVAN,GKNNRPS,DSRDSSGFQVS,2.74 / 2.94 / 3.65,3.11,3/9 (4.19)
QGDSLRYTYAN,GKNNRPS,SSRDSHGFQVF,2.63 / 3.33 / 2.79,2.92,5/9 (3.67)
EGDHLRYYYAN,GKNNRHS,SSRDPSGFQVF,3.16 / 4.83 / 2.98,3.66,0/9
EGDQLRNYYSN,GKNNRPS,SSRDSSGFQVF,3.49 / 3.32 / 3.04,3.28,4/9 (3.95)
EGDSSRYYYAN,GYNNRPS,SSRDLSGFQVF,nd / 3.23 / nd,3.23,1/9 (3.88)
EGDSLRYYYAN,GKNNTPS,SSRFSSGFNVF,3.27 / 2.61 / nd,2.94,4/9 (4.38)
EGDSLRYYYFN,GKSNRPS,SSRDSAGFQVF,2.91 / 2.79 / 2.91,2.87,5/9 (4.10)
EGDSLRYYYAN,GKNNRYS,SSRDSQGFQVF,3.75 / 3.73 / nd,3.74,2/9 (2.75)
EGDSLRYYYAN,GKNNTPY,SSRDVSGFQVF,2.82 / 3.52 / 2.80,3.05,1/9 (2.87)
EGDSLRYYYAN,GKNNRPS,SSIDSSGFQFT,4.31 / nd / nd,4.31,4/9 (3.90)
EGDSLRYYYAN,MMNNRPS,SSRDSSGAQVF,5.36 / 4.64 / 3.79,4.60,2/9 (4.13)
EGDSLRYYYAH,GANNRPS,SSGDSSGFQVF,3.98 / nd / nd,3.98,3/9 (4.72)
EGDSLRYYYCN,MKNNRPS,SSRDSSGFQLF,nd / 5.75 / 3.97,4.86,2/9 (4.57)
ESCSLRYYYAN,GKNNRVS,SSRDSSGFQVF,3.53 / nd / nd,3.53,2/9 (4.49)
EGDSLRYYYAN,GKVNRPS,TSRDSSGVQVF,3.63 / 4.48 / 4.44,4.18,4/9 (4.72)
WGDSLRYYAAN,GKNNRPS,SSRDSSGAQVF,2.06 / 2.03 / 1.83,1.98,2/9 (4.45)
EGDSLRYYYAN,GKNNRNG,SSRDSSGDQVF,nd / 3.58 / nd,3.58,2/9 (2.97)
EGDSLRYYYAA,GKNNRPS,GSRDSSGFCVF,nd / 3.77 / 4.48,4.13,1/9 (3.97)
EVDSLRYFYAN,GKNNRPS,SSRDSSGFQVF,3.45 / nd / 4.13,3.79,3/9 (3.81)
EGDSLRYYYEN,GKNNRPS,SSKDSSGFQVF,nd / nd / nd,nd,0/9
EGDSLRDYYAW,GKNNRPS,SSRDSSGFQVK,3.48 / nd / 4.61,4.05,2/9 (3.54)
EIDVLDYYYAN,GKNNRPS,SSRDSSGFQVF,3.91 / nd / 4.22,4.06,1/9 (5.58)
WGDSMRYYYAN,GKDNRPS,SSRDSSGFQVF,3.63 / nd / nd,3.63,1/9 (3.31)
EGDSLRYVYAN,GKNNEPS,SSRDSSGGQVF,4.52 / nd / nd,4.52,4/9 (4.87)
EGDSVREYYAN,GKNNRLS,SSRDSSGFQVF,3.34 / nd / 4.35,3.85,4/9 (3.54)
EGDSLRYYYAN,GKTNRPS,SPRDSSGFQVF,2.79 / 3.65 / 3.42,3.29,6/9 (4.14)
EGDSLRYEYQN,GKNNRQS,SSRDSSGFQVF,nd / nd / nd,nd,1/9 (3.89)

Top 3 of the variants detected in all replicates, tightest first:

{"CDR-L1": "WGDSLRYYAAN", "CDR-L2": "GKNNRPS", "CDR-L3": "SSRDSSGAQVF", "log10 Kd (nM) by replicate": "2.06 / 2.03 / 1.83", "mean, log10 nM": "1.98", "signal with controls": "2/9 (4.45)"}
{"CDR-L1": "EGDSLRYYYFN", "CDR-L2": "GKSNRPS", "CDR-L3": "SSRDSAGFQVF", "log10 Kd (nM) by replicate": "2.91 / 2.79 / 2.91", "mean, log10 nM": "2.87", "signal with controls": "5/9 (4.10)"}
{"CDR-L1": "QGDSLRYTYAN", "CDR-L2": "GKNNRPS", "CDR-L3": "SSRDSHGFQVF", "log10 Kd (nM) by replicate": "2.63 / 3.33 / 2.79", "mean, log10 nM": "2.92", "signal with controls": "5/9 (3.67)"}